pIC50: −log10 of the molar value.
Target: BPTF bromodomain (Homo sapiens, UniProt Q12830)
Assay: BPTF AlphaScreen competitive inhibition assay
Assay type: binding
Design: 30 nM for His9-tagged BPTF bromodomain and 50 nM for the biotinylated peptide were used; made in house

## Cn1ncc(NC2CNC2)c(Cl)c1=O [Compound 4, 5-(azetidin-3-ylamino)-4-chloro-2-methylpyridazin-3(2H)-one]
  pIC50: 5.06
From BPTF AlphaScreen
  L.E. (ligand efficiency): 0.49
